Assay [1] deals with T1, BRD4 (Homo sapiens (Human), UniProt O60885). As to conditions: read-out: BRD4 IC50 (μM gmean).
For assay [2], the target named is T1, BRD4. Kind of assay: biochemical. As to conditions: BRD4 IC50 (μM gmean).

Molecules are shown by their SMILES. Read-outs that look alike come from different tables or passages of the source.

With `COC(=O)N1c2ccc3c(nc([C@@H](C)Oc4ccccc4)n3[C@H]3CC[C@H](C(=O)O)CC3)c2CC[C@@H]1C` [Example 529], the IC50 on BRD4 [1] is 1 to 1000 µM.
Still for that read-out and setting: the result for `COC(=O)N1c2ccc3c(nc(C(O)c4cc(F)cc(F)c4)n3C3CCCC(C(=O)O)C3)c2CC[C@@H]1C` (some centres unmarked) [Example 493] reads 0.1 to 1 µM.
On the same count and under the same terms, then `COC(=O)N1c2ccc3c(nc(C(C)Cc4ccc(F)c(F)c4)n3C3CCNCC3)c2CC[C@@H]1C` (some centres unmarked) [Example 931], with 1 to 1000 µM; and `COC(=O)N1c2ccc3c(nc(C(C)Cn4cc(Cl)cn4)n3C3CCCNCC3)c2CC[C@@H]1C` (some centres unmarked) [Example 932], with 1 to 1000 µM; and `COC(=O)N1c2ccc3c(nc(Cn4ccccc4=O)n3[C@H]3CCC[C@H](O)C3)c2CC[C@@H]1C` [Example 70], with 1 to 1000 µM.
As for `COC(=O)N1c2ccc3c(nc(C(C)Cc4cnccn4)n3C3CCC(C(=O)O)CC3)c2CC[C@@H]1C` (some centres unmarked) [Example 801], at BRD4 [1], the IC50 is 1 to 1000 µM.
For the compound `COC(=O)N1c2ccc3c(nc(C(C)Cn4cc(Cl)cn4)n3C3CCNC3)c2CC[C@@H]1C` (some centres unmarked) [Example 944], the IC50 at BRD4 [1] lay in the range of 1 to 1000 µM.
For `COC(=O)N1c2ccc3c(nc(C(O)c4cc(Cl)c5c(c4)CCO5)n3C3CCCC(C(=O)O)C3)c2CC[C@@H]1C` (some centres unmarked) [Example 461], at BRD4 [1], the IC50 was in the range of 0.1 to 1 µM.
The same measure, in the same setting: then `COC(=O)N1c2ccc3c(nc(C(C)Cc4cnccn4)n3C3CCCC(C(=O)O)C3)c2CC[C@@H]1C` (some centres unmarked) [Example 848], with 1 to 1000 µM; and `COC(=O)N1c2ccc3c(nc(C(C)Cn4cc(Cl)cn4)n3C3CC4(CCNC4)C3)c2CC[C@@H]1C` (some centres unmarked) [Example 836], with 0.1 to 1 µM; and `COC(=O)N1c2ccc3c(nc(C(C)Cn4cc(Cl)cn4)n3C3CC4(CCNC4)C3)c2CC[C@@H]1C` (some centres unmarked) [Example 910], with 1 to 1000 µM.
Still for that read-out and setting: then `COC(=O)N1c2ccc3c(nc(C(Cc4ccccc4)NC(C)=O)n3C3CCC(C(=O)O)CC3)c2CC[C@@H]1C` (some centres unmarked) [Example 855], with 1 to 1000 µM; and `COC(=O)N1c2ccc3c(nc(C(C)Cn4cc(Cl)cn4)n3C3CC4(CCNCC4)C3)c2CC[C@@H]1C` (some centres unmarked) [Example 940], with 1 to 1000 µM; and `COC(=O)N1c2ccc3c(nc(C(C)Cc4ccc(F)c(F)c4)n3C3CCC4(CC3)CNC4)c2CC[C@@H]1C` (some centres unmarked) [Example 921], with 1 to 1000 µM.
The same measure, in the same setting: the result for `COC(=O)N1c2ccc3c(nc(Cn4ccccc4=O)n3[C@@H]3CCC[C@@H](O)C3)c2CC[C@@H]1C` [Example 69] reads 1 to 1000 µM; that for `COC(=O)N1c2ccc3c(nc(CCC4CCCCO4)n3C3CCCC(C(=O)O)C3)c2CC[C@@H]1C` (some centres unmarked) [Example 889], 0.1 to 1 µM.
In the case of `COC(=O)N1c2ccc3c(nc(C(C)n4c(O)cc5ccccc54)n3C3CCCC(C(=O)O)C3)c2CC[C@@H]1C` (some centres unmarked) [Example 722], the 50% inhibitory concentration (IC50) at BRD4 [1] lay within 0.1 to 1 µM.
On the same count and under the same terms, then `COC(=O)N1c2ccc3c(nc(C(O)C4CCCCCC4)n3C3CCCC(C(=O)O)C3)c2CC[C@@H]1C` (some centres unmarked) [Example 615], with 1 to 1000 µM.
Consider `COC(=O)N1c2ccc3c(nc(C(O)c4cc(F)cc(F)c4OC)n3C3CCCC(C(=O)O)C3)c2CC[C@@H]1C` (some centres unmarked) [Example 649], for which the IC50 at BRD4 [1] was in the range of 1 to 1000 µM.
As to `COC(=O)N1c2ccc3c(nc(C(O)c4c(OC)ccc(F)c4F)n3C3CCCC(C(=O)O)C3)c2CC[C@@H]1C` (some centres unmarked) [Example 638], on BRD4 [1], the IC50 lay in the range of 1 to 1000 µM.
The same measure, in the same setting: the result for `COC(=O)N1c2ccc3c(nc(N(C)c4ccccc4)n3[C@H]3CC[C@H](C(=O)O)CC3)c2CC[C@@H]1C` [Example 659] reads 1 to 1000 µM; that for `COC(=O)N1c2ccc3c(nc(C(C)(O)c4cc(F)ccc4OC)n3C3CCCC(C(=O)O)C3)c2CC[C@@H]1C` (some centres unmarked) [Example 957], 1 to 1000 µM; that for `COC(=O)N1c2ccc3c(nc(C(C)Cn4cc(Cl)cn4)n3C3CCNC3)c2CC[C@@H]1C` (some centres unmarked) [Example 950], 1 to 1000 µM.
As to `COC(=O)N1c2ccc3c(nc(C(O)c4cc(F)ccc4OC4CC4)n3C3CCCC(C(=O)O)C3)c2CC[C@@H]1C` (some centres unmarked) [Example 678], the IC50 at BRD4 [1] was 0.1 to 1 µM.
Regarding `COC(=O)N1c2ccc3c(nc(C(O)c4ccc(OC)cc4Cl)n3C3CCCC(C(=O)O)C3)c2CC[C@@H]1C` (some centres unmarked) [Example 431], at BRD4 [1], the IC50 was 0.1 to 1 µM.
The same measure, in the same setting: then `COC(=O)N1c2ccc3c(nc(CCC4CCCO4)n3C3CCCC(C(=O)O)C3)c2CC[C@@H]1C` (some centres unmarked) [Example 897], with 1 to 1000 µM; and `COC(=O)N1c2ccc3c(nc(C(C)Cc4ccccc4)n3C3CCC4(CC3)CNC4)c2CC[C@@H]1C` (some centres unmarked) [Example 919], with 1 to 1000 µM; and `COC(=O)N1c2ccc3c(nc(C(O)c4cccc5c4OCC5)n3C3CCCC(C(=O)O)C3)c2CC[C@@H]1C` (some centres unmarked) [Example 578], with 1 to 1000 µM.
On the same count and under the same terms, then `COC(=O)N1c2ccc3c(nc(C(O)c4ccc5ocnc5c4)n3C3CCCC(C(=O)O)C3)c2CC[C@@H]1C` (some centres unmarked) [Example 499], with 0.1 to 1 µM; and `COC(=O)N1c2ccc3c(nc(CCC4CCCO4)n3C3CCCC(C(=O)O)C3)c2CC[C@@H]1C` (some centres unmarked) [Example 679], with 1 to 1000 µM; and `COC(=O)N1c2ccc3c(nc(C(C)Cc4ccccc4)n3C3CCCNCC3)c2CC[C@@H]1C` (some centres unmarked) [Example 953], with 1 to 1000 µM.
Take `COC(=O)N1c2ccc3c(nc(C(O)c4cc(Cl)ccc4OC)n3C3CCCC(C(=O)O)C3)c2CC[C@@H]1C` (some centres unmarked) [Example 630]: at BRD4 [1], the IC50 is 0.1 to 1 µM.
For `COC(=O)N1c2ccc3c(nc(C(O)c4ccc5oc(C)nc5c4)n3C3CCCC(C(=O)O)C3)c2CC[C@@H]1C` (some centres unmarked) [Example 565], the IC50 on BRD4 [1] was in the range of 1 to 1000 µM.
On to `COC(=O)N1c2ccc3c(nc(Cc4ccc(OC(F)F)c(F)c4)n3C3CCC(C(=O)O)CC3)c2CC[C@@H]1C` (some centres unmarked) [Example 408], for which, on BRD4 [1], the IC50 was in the range of 1 to 1000 µM.
Take `COC(=O)N1c2ccc3c(nc(C(c4ccccc4)C(C)C)n3C3CCC(C(=O)O)CC3)c2CC[C@@H]1C` (some centres unmarked) [Example 869]: the IC50 at BRD4 [1] fell in the range of 1 to 1000 µM.
The same measure, in the same setting: then `COC(=O)N1c2ccc3c(nc(C(O)c4c(OC)ccc(F)c4OC)n3C3CCCC(C(=O)O)C3)c2CC[C@@H]1C` (some centres unmarked) [Example 770], with 1 to 1000 µM; and `COC(=O)N1c2ccc3c(nc(C(C)Cn4cc(Cl)cn4)n3C3CCCNCC3)c2CC[C@@H]1C` (some centres unmarked) [Example 938], with 1 to 1000 µM.
For the compound `COC(=O)N1c2ccc3c(nc(C(O)c4cccc5c4COC5)n3C3CCCC(C(=O)O)C3)c2CC[C@@H]1C` (some centres unmarked) [Example 701], at BRD4 [1], the half-maximal inhibitory concentration (IC50) lay within 1 to 1000 µM.
Still for that read-out and setting: the result for `COC(=O)N1c2ccc3c(nc(C(O)c4ccc5[nH]ccc5c4)n3C3CCCC(C(=O)O)C3)c2CC[C@@H]1C` (some centres unmarked) [Example 608] reads 0.01 to 0.1 µM; that for `COC(=O)N1c2ccc3c(nc(C(C)Oc4cccnc4)n3C3CCC(C(=O)O)CC3)c2CC[C@@H]1C` (some centres unmarked) [Example 599], 0.1 to 1 µM; that for `COC(=O)N1c2ccc3c(nc(C(O)c4cc(F)cc5cc[nH]c45)n3C3CCCC(C(=O)O)C3)c2CC[C@@H]1C` (some centres unmarked) [Example 448], 0.1 to 1 µM.
The same measure, in the same setting: then `COC(=O)N1c2ccc3c(nc(C(C)Cn4ccc(Cl)n4)n3C3CCC(C(=O)O)CC3)c2CC[C@@H]1C` (some centres unmarked) [Example 790], with 1 to 1000 µM.
For the compound `COC(=O)N1c2ccc3c(nc(C(C)CN4CCCCC4=O)n3C3CCCC(C(=O)O)C3)c2CC[C@@H]1C` (some centres unmarked) [Example 929], the IC50 on BRD4 [1] was in the range of 1 to 1000 µM.
The same measure, in the same setting: then `COC(=O)N1c2ccc3c(nc(C(O)c4cc(F)ccc4OC(C)C)n3C3CCCC(C(=O)O)C3)c2CC[C@@H]1C` (some centres unmarked) [Example 662], with 0.1 to 1 µM; and `COC(=O)N1c2ccc3c(nc(C(C)Oc4ccccn4)n3C3CCC(C(=O)O)CC3)c2CC[C@@H]1C` (some centres unmarked) [Example 793], with 1 to 1000 µM.
The same measure, in the same setting: then `COC(=O)N1c2ccc3c(nc(C(O)Cc4ccccc4)n3C3CCCC(C(=O)O)C3)c2CC[C@@H]1C` (some centres unmarked) [Example 822], with 1 to 1000 µM.
Same read-out and setting: then `COC(=O)N1c2ccc3c(nc(C(C)Cc4ccccc4)n3C3CCCNCC3)c2CC[C@@H]1C` (some centres unmarked) [Example 734], with 1 to 1000 µM.
Turning to `COC(=O)N1c2ccc3c(nc(C(O)c4cc5ccccc5cn4)n3C3CCCC(C(=O)O)C3)c2CC[C@@H]1C` (some centres unmarked) [Example 631], the IC50 at BRD4 [1] fell in the range of 1 to 1000 µM.
The same measure, in the same setting: then `COC(=O)N1c2ccc3c(nc(C(C)OC4CCCCC4)n3C3CCCC(C(=O)O)C3)c2CC[C@@H]1C` (some centres unmarked) [Example 531], with 0.1 to 1 µM.
Take `COC(=O)N1c2ccc3c(nc(C(C)C(=O)N4CCCCC4)n3C3CCCC(C(=O)O)C3)c2CC[C@@H]1C` (some centres unmarked) [Example 624]: the IC50 on BRD4 [1] was 0.1 to 1 µM.
Same read-out and setting: the result for `COC(=O)N1c2ccc3c(nc(C(O)c4cc(F)c5c(c4)CCO5)n3C3CCCC(C(=O)O)C3)c2CC[C@@H]1C` (some centres unmarked) [Example 474] reads 0.1 to 1 µM; that for `COC(=O)N1c2ccc3c(nc(C(C)Cn4cc(Cl)cn4)n3C3CC4(CCNC4)C3)c2CC[C@@H]1C` (some centres unmarked) [Example 959], 1 to 1000 µM; that for `COC(=O)N1c2ccc3c(nc(C(O)c4ccc(OC)c(Cl)c4)n3C3CCCC(C(=O)O)C3)c2CC[C@@H]1C` (some centres unmarked) [Example 437], 0.1 to 1 µM.
`COC(=O)N1c2ccc3c(nc(C(O)c4ccc5c(c4)CCO5)n3C3CCCC(C(=O)O)C3)c2CC[C@@H]1C` (some centres unmarked) [Example 460]: at BRD4 [1], the IC50 was 0.1 to 1 µM.
For `COC(=O)N1c2ccc3c(nc(C(C)OC4CCOCC4)n3C3CCCC(C(=O)O)C3)c2CC[C@@H]1C` (some centres unmarked) [Example 603], the IC50 on BRD4 [1] is 1 to 1000 µM.
The same measure, in the same setting: then `COC(=O)N1c2ccc3c(nc(C(C)OC4CCCCC4)n3C3CCC(C(=O)O)CC3)c2CC[C@@H]1C` (some centres unmarked) [Example 558], with 1 to 1000 µM; and `COC(=O)N1c2ccc3c(nc(C(O)c4cccc(Cl)c4)n3C3CCCC(C(=O)O)C3)c2CC[C@@H]1C` (some centres unmarked) [Example 523], with 0.1 to 1 µM.
Turning to `COC(=O)N1c2ccc3c(nc(C(C)Oc4cccnc4)n3C3CCC(C(=O)O)CC3)c2CC[C@@H]1C` (some centres unmarked) [Example 483], at BRD4 [2], the IC50 fell in the range of 0.1 to 1 µM.
In turn, `COC(=O)N1c2ccc3c(nc(Nc4cccc(C#N)c4)n3[C@@H]3CCC[C@@H](C(=O)O)C3)c2CC[C@@H]1C` [Example 819] showed an IC50 at BRD4 [2] of 0.1 to 1 µM.
The same measure, in the same setting: then `COC(=O)N1c2ccc3c(nc(C(C)Cc4cnccn4)n3C3CCCC(C(=O)O)C3)c2CC[C@@H]1C` (some centres unmarked) [Example 585], with 0.1 to 1 µM.
Consider `COC(=O)N1c2ccc3c(nc([C@@H](C)OC4CCOCC4)n3[C@@H]3CCC[C@@H](C(=O)O)C3)c2CC[C@@H]1C` [Example 557], for which the IC50 against BRD4 [2] lay within 0.1 to 1 µM.
Same read-out and setting: the result for `COC(=O)N1c2ccc3c(nc(Cc4ccccc4)n3[C@H]3CC[C@H](C(=O)O)C(C)(C)C3)c2CC[C@@H]1C` (single isomer, unassigned) [Example 51] reads 1 to 1000 µM.
